Data: patent US20060217418A1, “Substituted alkyl amido piperidines” (priority 2001, published 2006)

By UniProt entry, the sequences of proteins in these tests, tags left out. Where a name states a change or a piece, a line headed by the entry shows the natural chain unless it says otherwise.
UniProt P97639: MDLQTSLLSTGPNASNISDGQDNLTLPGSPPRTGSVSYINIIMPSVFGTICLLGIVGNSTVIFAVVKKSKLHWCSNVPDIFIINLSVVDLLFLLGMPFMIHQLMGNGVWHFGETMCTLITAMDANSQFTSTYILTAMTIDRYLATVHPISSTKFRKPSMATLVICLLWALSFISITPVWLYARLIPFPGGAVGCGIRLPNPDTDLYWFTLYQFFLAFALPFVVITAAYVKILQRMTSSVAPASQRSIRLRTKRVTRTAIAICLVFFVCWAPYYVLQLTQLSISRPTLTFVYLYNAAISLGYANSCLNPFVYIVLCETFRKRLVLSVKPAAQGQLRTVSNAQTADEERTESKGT

biological target: rat MCH1 receptor (Rattus norvegicus, UniProt P97639); assay: Radioligand binding assay at cloned rat MCH1 receptor ([3H]Compound A); details: read-out: Ki(MCH-1); cloned rat MCH1, Peakr293 cell membranes, 0.08 nM [3H]Compound A, 25° C., 90 minutes

SMILES	Ki
Cc1ccc(NC(=O)C(C)C)cc1C1CCN(CCCNC(=O)C(O)(c2ccc(F)cc2)c2ccc(F)cc2)CC1	0.7 nM
Cc1ccc(C(O)(C(=O)NCCCN2CCC(c3cc(NC(=O)C(C)C)c(F)cc3F)CC2)c2ccc(C)cc2)cc1	5.4 nM
Cc1ccc(NC(=O)C(C)C)cc1C1CCN(CCCNC(=O)C(O)(c2ccccc2Cl)c2ccccc2Cl)CC1	9.4 nM
CC(C)C(=O)Nc1cncc(C2CCN(CCCNC(=O)C(O)(c3ccc(F)cc3)c3ccc(F)cc3)CC2)c1	5.3 nM
CC(C)C(=O)Nc1cc(C2CCN(CCCNC(=O)C(O)(c3ccc(F)cc3)c3ccc(F)cc3)CC2)c(F)cc1F	3.6 nM
Cc1ccc(NC(=O)C(C)C)cc1C1CCN(CCCNC(=O)C(O)(c2ccccc2)c2ccccc2)CC1	0.5 nM
Cc1ccc(C(O)(C(=O)NCCCN2CCC(c3cc(NC(=O)C(C)C)ccc3C)CC2)c2ccc(C)cc2)cc1	1.1 nM
Cc1ccc(C(O)(C(=O)NCCCN2CCC(c3cncc(NC(=O)C(C)C)c3)CC2)c2ccc(C)cc2)cc1	16 nM
CC(C)C(=O)Nc1cc(C2CCN(CCCNC(=O)C(O)(c3ccccc3)c3ccccc3)CC2)c(F)cc1F	6.8 nM
CC(C)C(=O)Nc1cncc(C2CCN(CCCNC(=O)C(O)(c3ccccc3)c3ccccc3)CC2)c1	34.6 nM
